In patent publication EP1685120B1, “COLOURING HYDROSOLUBLE YELLOW PREPARATION DERIVED FROM DIHYDROCHALCONES” (INSTITUT NATIONAL DE LA RECHERCHE AGRONOMIQUE, priority 2003, dated 2005):
Where “and” joins values, the source holds several entries; their conditions need not be identical. Equal values may be shown once.

Tests used:
[1] = Colorimetric parameters CIE L*a*b* (Minolta CM-3600d spectrophotometer) in Mc Ilvaine buffer; assay type: physicochemical; conditions: tampon de Mc Ilvaine
From the text: Les paramètres de coloration du colorant par rapport à de l'eau distillée (référence) ont été mesurés en solution dans un tampon de M^c Ilvaine (citrate-phosphate) à différents pH (2,2 à 8) et ce, pour plusieurs concentrations.
Les mesures ont été réalisées à l'aide d'un spectrophotomètre Minolta CM-3600d (©1998 Minolta Co., Ltd. Japon) avec la plaque de calibration (Minolta n° 13171008). Le spectrophotomètre équipé d'un logiciel de retraitement SpectraMagic V 3.60G (Cyberchrome Inc Minolta Co. Ltd), a été paramétré pour utiliser l'espace colorimétrique CIE L*a*b (Figure 2), avec l'illuminant D65-10° (D65-A-F2), et l'observateur moyen normalisé 10° CIE 1964 (sensibilité d'un oeil moyen). A partir des valeurs a* et b* nous avons calculé les coordonnées polaires C* = sqrt(((a*))^2 + ((b*))^2) et h = tan g^-1 ((a*)/(b*)) × (180)/(Pi) [formula] Dans la suite du texte nous exploiterons principalement ces coordonnées polaires C* et h, car elles ont chacune une signification colorimétrique : C* est la distance au centre de l'espace et correspond à la saturation de la couleur alors que h est un angle (exprimé ici en degré) qui définit la teinte. A titre indicatif pour la couleur rouge la teinte se situe au voisinage de 0°, pour le jaune environ 90°, pour le vert 180° et pour le bleu 270°. La valeur L* est utilisée telle quelle et exprime la clarté.

[2] = test system: cellules TC-7; assay: Cytotoxicity test, cell viability by neutral red method; assay type: cell-based; conditions: 2 h incubation, 540 nm, single replicates, listed as POP purifié
Protocol: Cellules TC-7 (sous clone de caco-2) cultivées sur nacelles (membrane en polyéthylène téréphtalate), utilisées à 21 jours de confluence, fournie par Bioprédic International
Emploi des cellules au passage 21.
Produit "POP" purifié (composé de formule I-b-1), obtenu tel que décrit précédemment (paragraphe D) : solubilisé directement dans le tampon apical, testé à 20, 100, 200, 1000 et 2000 µM pour le test de cytotoxicité. Pas de solvant utilisé pour la solubilisation des produits à l'essai.
Système réactionnel : cultures de cellules TC-7 incubées en présence des produits à l'essai aux différentes concentrations citées ci-dessus.
Temps d'incubation : 2 heures. [drawing 6] ↑ : incubation des produits à l'essai ? : évaluation des effets Replicate : 5 par concentrations. Température d'incubation : 37°C. Autres conditions : atmosphère humide contenant 5 % de CO2.
Témoin : correspondant aux cellules incubées en absence de produit à l'essai [drawing 8] Replicate : 10
Viabilité cellulaire mesurée selon la méthode du rouge neutre après incubation avec les produits à l'essai : • incubation en présence de rouge neutre pendant 3 heures • lyse des cellules et lecture de la densité optique avec un spectrophotomètre à 540 nm (la densité optique du rouge neutre est proportionnelle au nombre de cellules vivantes).
Expression des résultats : en unités arbitraires de D.O.(densité optique) par échantillon et en pourcentage de variation par rapport au groupe témoin.

## acide 3-(4'-hydroxy-2'-glucosyl-4,5-dioxo-3,6-dihydro-2H-dibenzofuran-2-yl)-propionique [I-b-1]
[1]; 5 mg/L, pH 3
  C* : saturation: 12,4
  h: 111,7 degré
[1]; 10 mg/L, pH 3
  C* : saturation: 24,3
  h: 110,4 degré
[1]; 20 mg/L, pH 3
  C* : saturation: 43,7
  h: 108,1 degré
[1]; 40 mg/L, pH 3
  C* : saturation: 69,4
  h: 104,8 degré
[1]; 100 mg/L, pH 3
  C* : saturation: 97,6
  h: 100,5 degré
[1]; pH 2,2, env. 20 mg/L
  C* : saturation: 42,9
  h: 108,4 degré
[1]; pH 3, env. 20 mg/L
  C* : saturation: 43,2
  h: 108,1 degré
[1]; pH 4, env. 20 mg/L
  C* : saturation: 44,3
  h: 107,3 degré
[1]; pH 5, env. 20 mg/L
  C* : saturation: 48,1
  h: 103,8 degré
[1]; pH 6, env. 20 mg/L
  C* : saturation: 57,7
  h: 90,1 degré
[1]; pH 7, env. 20 mg/L
  C* : saturation: 73,2
  h: 77,2 degré
[1]; pH 8, env. 20 mg/L
  C* : saturation: 74,8
  h: 74,9 degré
[2]; 20 µM
  DO: 0,441 and 0,477 and 0,501 and 0,517 and 0,510
[2]; 100 µM
  DO: 0,432 and 0,519 and 0,517 and 0,533 and 0,518
[2]; 200 µM
  DO: 0,407 and 0,460 and 0,480 and 0,495 (2×)
[2]; 1000 µM
  DO: 0,438 and 0,521 and 0,518 and 0,535 and 0,509
[2]; 2000 µM
  DO: 0,442 and 0,436 and 0,458 and 0,476 and 0,429
